Measured values reported in PMC7723054.
The other results are listed elsewhere or left out.

B1: hsa-mir-1266 (structured_RNA)
RNA: GGGACCAGACUCUGGGAGUAGAGUACAAGGUGUACGAAGUUUCAGCAGGGCUGGGAUUACUAAAGCCCUGCUGAAGCUUCGUGCAC
B2: hsa-mir-7976 (structured_RNA)
RNA: GGGACAACACUCUGCGUUCCAGUAAGCUGGUGUACGAAGUUUCAGCGCUCUAAUAAUUUAUUCUAAUAAUAAUUUAGAUCGCUGAAGCUUCGUGCAC
B3: NEAT1_ParasoR_ID32 (structured_RNA)
RNA: GGGAACGGGGUGCUCCAUACCUAAUAUUGGUGUACGAAGUUUCAGCUCCUGUAAGGCAAGAAUAUUCUCUCUGUUGGAACUCAAAUACACAGAACUGGGUAAAUCUCAAUCUUAAUCUUUGAUUCAGGAGCUGAAGCUUCGUGCAC
B4: hsa-let-7g (structured_RNA)
RNA: GGGAAAACGCGGUAAUUCAUAACGGAUAGGUGUACGAAGUUUCAGCACAGUUUGAGGGUCUAUGAUACCACCCGGUACAGGAGAUAACUGUGCUGAAGCUUCGUGCAC
B5: hsa-mir-431 (structured_RNA)
RNA: GGGAAGGGUAACUUGGAUGUACGGACUUGGUGUACGAAGUUUCAGCCAUGCAGGCCACACUGACGGUAACGUUGCAGGGCUGAAGCUUCGUGCAC
B6: PARIS_ID10 (structured_RNA)
RNA: GGGAAAGUCAGGACCUACGACGACUCACGGUGUACGAAGUUUCAGCGUCAUGUGUCUGCUGGUGAUGCUGAAGCUUCGUGCAC
B7: hsa-mir-132 (structured_RNA)
RNA: GGGACUAGCAUGACGCUGAAUAUUAGCAGGUGUACGAAGUUUCAGCGUUACUGUGGGAACUGGAGGUAACGCUGAAGCUUCGUGCAC
B8: hsa-mir-4417 (structured_RNA)
RNA: GGGAAGCGCAAGGCACGUUAUCAAUCCCGGUGUACGAAGUUUCAGCGGGCGGAACACCCAGCCCCGCUGAAGCUUCGUGCAC
B9: hsa-mir-5001 (structured_RNA)
RNA: GGGACCUAAAGAGACCGAAGCCCUGUAUGGUGUACGAAGUUUCAGCGGAGCUGGCUGCUGGCCUCAGUUCUGCUGAAGCUUCGUGCAC
B10: hsa-mir-566 (structured_RNA)
RNA: GGGACGCCUGCCUGGAAACCGUUGAUAUGGUGUACGAAGUUUCAGCCAACUACUCAGGAGGCUGGCUGAAGCUUCGUGCAC
B11: hsa-mir-3978 (structured_RNA)
RNA: GGGACCACUUGAGGCUUAACUAAACGGUGGUGUACGAAGUUUCAGCGUGGAGCCAAAAUUAGAAGGGCCAAAAUUCUACCUGGCCCACUACCACAGGCUGAAGCUUCGUGCAC
B12: hsa-mir-6505 (structured_RNA)
RNA: GGGAGGCAUUACGCCAAAACUGUCUACCGGUGUACGAAGUUUCAGCCUCAGCAUGUUGAGCCCUGUCUCUGGGGAGCUGACGCUGAAGCUUCGUGCAC
B13: hsa-mir-568 (structured_RNA)
RNA: GGGAUGGUCGCGCUACCCUAUGCUCAGUGGUGUACGAAGUUUCAGCACACUUCCUAUAUGUAUCCACAUAUAUAUAGUGCUGAAGCUUCGUGCAC
B14: hsa-mir-1298 (structured_RNA)
RNA: GGGAACAGGAGCGUACCCUAGGGACAAGGGUGUACGAAGUUUCAGCGAUGUAUCCAAGUACCCUGUGUUAUUUGGCAAUAAAUACAUCGCUGAAGCUUCGUGCAC
B15: hsa-mir-591 (structured_RNA)
RNA: GGGACGCUGGCGGCUUGUACUUCAUAUUGGUGUACGAAGUUUCAGCUUGUAAUAGUGUAGAAUGUUGGUUAACGCUGAAGCUUCGUGCAC
B16: hsa-mir-4774 (structured_RNA)
RNA: GGGACAGUGGGGUUAAACCUACACAUUCGGUGUACGAAGUUUCAGCUAAUAACUGACAAACAGACAAUUGGCUGAAGCUUCGUGCAC
B17: hsa-mir-138-2 (structured_RNA)
RNA: GGGAAAGACUUGGGAGAAUUAAUCCGCUGGUGUACGAAGUUUCAGCAGGCCGACGAGCAGCGCAUCCUCUUACCCGGCUAGCUGAAGCUUCGUGCAC
B18: hsa-mir-629 (structured_RNA)
RNA: GGGAUGGGACAGCGUCCAAACAUGACCAGGUGUACGAAGUUUCAGCGAACUUUUACGGUGAACCAGGAGGUUCGCUGAAGCUUCGUGCAC
B19: hsa-mir-203b (structured_RNA)
RNA: GGGAAUCGAACUUUGGGGAGGAACACCAGGUGUACGAAGUUUCAGCUCACAAUUGCGCUACAGAACUGUUGAGCUGAAGCUUCGUGCAC
B20: hsa-mir-4661 (structured_RNA)
RNA: GGGAUAUACACGGGAGUCUGUCCGCCAUGGUGUACGAAGUUUCAGCCCUGACAGACAGCCUGAUAGACAGGGCUGAAGCUUCGUGCAC
B21: hsa-mir-718 (structured_RNA)
RNA: GGGAAAACGACACUCGCUAUGUCUCUGCGGUGUACGAAGUUUCAGCGCCCGGGCACCGCCCCUUGCUGAAGCUUCGUGCAC
B22: hsa-mir-503 (structured_RNA)
RNA: GGGACGCUCCGUCGUUAAAAGCAUGUCUGGUGUACGAAGUUUCAGCCUGCAGUGAGCGAUCGGUGCUCUGGGGGCUGAAGCUUCGUGCAC

target: U1A (Homo sapiens, UniProt P09012); assay: FOREST: bead pull-down of RNA structure library v1, barcode microarray; U1A/LIN28A: 20 mM HEPES pH 7.5, 80 mM KCl, 20 mM NaCl, 10% glycerol, 2 mM DTT, 0.1 ug/uL BSA, 4 C; BG4/CIRBP/DHX36: 10 mM Tris-HCl pH 7.5, 100 mM KCl (or LiCl),; high values mean tight binding

Row | Binder | binding signal [z-score]
1 | B1 | 0.309
2 | B2 | 0.309
3 | B3 | 0.309
4 | B4 | 1.89
5 | B5 | 0.309
6 | B6 | 0.304
7 | B7 | 0.302
8 | B8 | 0.3
9 | B9 | 0.3
10 | B10 | 0.297
11 | B11 | 0.297
12 | B12 | 0.294
13 | B13 | 0.291
14 | B14 | 0.289
15 | B15 | 1.89
16 | B16 | 0.288
17 | B17 | 0.284
18 | B18 | 0.284
19 | B19 | 0.282
20 | B20 | 0.282
21 | B21 | 0.28
22 | B22 | 0.28

target: T1, LIN28A (human?, UniProt Q9H9Z2 1-209); assay: as above
T1 sequence: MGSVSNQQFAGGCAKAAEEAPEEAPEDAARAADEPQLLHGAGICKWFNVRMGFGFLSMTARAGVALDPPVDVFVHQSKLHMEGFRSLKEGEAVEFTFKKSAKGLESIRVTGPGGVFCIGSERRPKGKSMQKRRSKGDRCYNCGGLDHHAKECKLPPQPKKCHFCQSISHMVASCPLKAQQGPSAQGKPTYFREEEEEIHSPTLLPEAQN

Row | Binder | binding signal [z-score]
23 | B1 | 1.38
24 | B2 | -1.44
25 | B3 | 0.402
26 | B4 | 2.69
27 | B5 | -0.492
28 | B6 | 0.617
29 | B7 | 0.418
30 | B8 | 0.615
31 | B9 | -0.474
32 | B10 | -0.856
33 | B11 | 2.19
34 | B12 | -0.466
35 | B13 | -1.1
36 | B14 | -0.163
37 | B15 | 1.02
38 | B16 | -1.25
39 | B17 | 1.58
40 | B18 | 0.217
41 | B19 | 0.778
42 | B20 | 1.25
43 | B21 | -1.05
44 | B22 | 0.178

target: T2, CIRBP (Homo sapiens, UniProt Q14011 1-172); assay: as above
T2 sequence: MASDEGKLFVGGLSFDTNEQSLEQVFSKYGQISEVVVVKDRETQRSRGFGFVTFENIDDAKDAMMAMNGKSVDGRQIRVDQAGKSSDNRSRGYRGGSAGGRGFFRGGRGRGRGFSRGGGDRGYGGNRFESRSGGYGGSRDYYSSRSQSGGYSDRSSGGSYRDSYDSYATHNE

Row | Binder | binding signal [z-score]
45 | B1 | -1.07
46 | B2 | -0.963
47 | B3 | -0.722
48 | B4 | 0.967
49 | B5 | -1.62
50 | B6 | 0.0883
51 | B7 | -0.724
52 | B8 | 0.823
53 | B9 | 1.81
54 | B10 | 0.408
55 | B11 | -0.447
56 | B12 | -0.806
57 | B13 | -1.82
58 | B14 | -0.095
59 | B15 | 1.63
60 | B16 | -0.072
61 | B17 | 3.24
62 | B18 | 0.534
63 | B19 | 2.13
64 | B20 | 0.0564
65 | B21 | -0.0139
66 | B22 | -1.29

target: T3, DHX36 (Homo sapiens, UniProt Q9H2U1 1-1008); assay: as above
T3 sequence: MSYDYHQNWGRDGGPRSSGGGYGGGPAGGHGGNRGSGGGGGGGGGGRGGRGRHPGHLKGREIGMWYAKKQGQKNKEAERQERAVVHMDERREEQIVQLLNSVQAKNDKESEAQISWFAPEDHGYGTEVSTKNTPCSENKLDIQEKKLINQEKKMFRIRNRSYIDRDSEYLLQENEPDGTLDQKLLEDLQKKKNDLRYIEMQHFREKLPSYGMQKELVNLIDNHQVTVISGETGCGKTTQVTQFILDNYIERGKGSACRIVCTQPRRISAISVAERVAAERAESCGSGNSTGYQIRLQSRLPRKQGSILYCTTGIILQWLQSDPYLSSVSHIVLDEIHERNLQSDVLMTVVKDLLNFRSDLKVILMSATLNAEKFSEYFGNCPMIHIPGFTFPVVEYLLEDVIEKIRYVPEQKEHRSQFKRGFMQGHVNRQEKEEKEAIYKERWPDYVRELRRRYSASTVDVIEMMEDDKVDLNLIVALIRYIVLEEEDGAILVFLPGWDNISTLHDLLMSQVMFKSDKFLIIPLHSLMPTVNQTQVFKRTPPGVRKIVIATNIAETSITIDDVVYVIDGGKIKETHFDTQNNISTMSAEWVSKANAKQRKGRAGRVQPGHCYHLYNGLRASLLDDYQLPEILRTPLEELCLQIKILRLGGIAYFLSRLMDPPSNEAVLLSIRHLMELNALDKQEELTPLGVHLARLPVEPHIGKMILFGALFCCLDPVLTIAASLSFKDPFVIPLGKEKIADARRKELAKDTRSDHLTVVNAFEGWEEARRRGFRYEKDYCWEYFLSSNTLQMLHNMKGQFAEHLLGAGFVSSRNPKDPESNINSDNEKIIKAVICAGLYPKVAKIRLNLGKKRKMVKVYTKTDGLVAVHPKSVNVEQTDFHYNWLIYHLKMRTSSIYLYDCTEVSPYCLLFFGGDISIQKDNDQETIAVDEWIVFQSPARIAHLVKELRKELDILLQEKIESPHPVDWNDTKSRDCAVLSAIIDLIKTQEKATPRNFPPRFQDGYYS

Row | Binder | binding signal [z-score]
67 | B1 | 0.317
68 | B2 | -0.957
69 | B3 | -0.141
70 | B4 | 0.877
71 | B5 | -0.218
72 | B6 | -0.238
73 | B7 | 0.187
74 | B8 | 0.991
75 | B9 | 0.0699
76 | B10 | -0.842
77 | B11 | 0.066
78 | B12 | 0.289
79 | B13 | 0.278
80 | B14 | -0.989
81 | B15 | 1.77
82 | B16 | -0.0991
83 | B17 | 1.25
84 | B18 | -0.151
85 | B19 | 1.53
86 | B20 | -0.0507
87 | B21 | -0.262
88 | B22 | 0.258
